Test results reported in ChEMBL document CHEMBL4138148, “Discovery of novel pyrrolo-pyridine/pyrimidine derivatives bearing pyridazinone moiety as c-Met kinase inhibitors” (Eur J Med Chem, 2017).

Assays:
[1] = organism: Homo sapiens; experiment: Selectivity ratio of IC50 for FLT3 (unknown origin) to IC50 for c-MET (unknown origin)
[2] = organism: Homo sapiens; experiment: Selectivity ratio of IC50 for VEGFR2 (unknown origin) to IC50 for c-MET (unknown origin)
[3] = organism: Homo sapiens; experiment: Selectivity ratio of IC50 for cKIT (unknown origin) to IC50 for c-MET (unknown origin)
[4] = organism: Homo sapiens; experiment: Selectivity ratio of IC50 for EGFR (unknown origin) to IC50 for c-MET (unknown origin)

Ratio IC50 [1]: 10.5
Ratio IC50 [2]: 32.9
Ratio IC50 [3]: 30.1
Ratio IC50 [4]: 137
Structure (SMILES): O=C(Nc1ccc(Oc2ccnc3[nH]ccc23)cc1)c1nn(-c2ccc(Cl)c(C(F)(F)F)c2)ccc1=O
